Values of other authors in US20180264094A1, “PERSONALISED IMMUNOGENIC PEPTIDE IDENTIFICATION PLATFORM” (priority 2017, published 2018).
Like-named read-outs stand apart in the source and are kept apart here.

Experiments:
[1] = in vivo; cited from earlier work
T cell responses = conditions: percentage of study subjects with positive T cell responses measured in the clinical trials, cited from earlier work

| Substance | ADA-related adverse event [1] | Response rate (Clinical Trials) (T cell responses) | Response rate (Clinical Trials) (T cell responses; listed as RMFPNAPYL (HLA- A*0201)) |
| --- | --- | --- | --- |
| Cetuximab | IgE, anaphlyaxis | – | – |
| RMFPNAPYL (additional peptide 12; additional peptide 13) [9 mer peptide vaccine, source antigen WT-1] | – | 100% | 81% |
| rIFN-beta | anaphylaxis | – | – |
